PMC11670252, “Antibody-mediated clearance of an ER-resident aggregate that causes glaucoma” (PNAS Nexus, 2024)

Biological target: T1, Biotinylated human OLF (Homo sapiens, biotin (EZ-Link Sulfo-NHS-Biotin, 1:20 molar ratio; sites not stated))
T1 construct: human myocilin, olfactomedin (OLF) domain; That MBP is cleaved is inferred as for Dm3; also called biotinylated-OLF; source: biotinylated with EZ-Link Sulfo-NHS-Biotin
T1 chain: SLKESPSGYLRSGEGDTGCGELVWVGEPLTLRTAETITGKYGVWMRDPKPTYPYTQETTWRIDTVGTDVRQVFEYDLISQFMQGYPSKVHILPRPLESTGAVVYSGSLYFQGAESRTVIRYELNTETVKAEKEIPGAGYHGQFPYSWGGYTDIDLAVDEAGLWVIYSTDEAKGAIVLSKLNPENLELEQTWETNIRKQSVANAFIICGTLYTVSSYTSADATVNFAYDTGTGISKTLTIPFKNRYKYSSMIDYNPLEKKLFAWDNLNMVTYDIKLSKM
Assay: BLI; ForteBio OctetRed; biotinylated OLF loaded on streptavidin biosensors at 20 ug/mL; Fab serially diluted 1:3 from 111.1 nM in HBS-EBT (10 mM HEPES, NaCl, 3 mM EDTA, 1 mg/mL BSA, 0.5% Tween-20); association 300 s, dissociation 300 s; global fit, 1:1 Langmuir model
Details: both partners purified

- Kd: 18.3 nM
- koff: 0.00335 s⁻¹
- kon: 183000 M⁻¹ s⁻¹
B1: Anti-OLF1 Fab (Fab, V domains shown)
VH: QVQLQQSGPELVKPGASVKISCKTSGYTFTENTMHWVRQSHGKSLEWIGGIHPNNIGSTYNQKFKGKATLTVDKSSSTAYMELRSLTSEDSAVYYCTRGATAPFAYWGQGTLVTVSA
VL: DIVMTQTPLSLPVSLGDQASISCRSSQSIVHSNGNTYLHWYQQKSGQSPKLLIYKVSNRFSGVPDRFSGSGSGTDFTLKISRVEAEDLGVYFCSQSTHVPPTFGGGTKLEIK

- Kd: 5.61 nM
- koff: 0.00167 s⁻¹
- kon: 298000 M⁻¹ s⁻¹
B2: Anti-OLF2 Fab (Fab, V domains shown)
VH: EVKLVESGPGLVAPSQSLSITCTVSGFSLRNYGVHWFRQPPGKGLEWLAVTWSDGSTTYNSVLKSRLSISKDNSKSQVFLKMNSLQSDDTAMYYCARTLNLYRYDGMDYWGRGTSVTVSS
VL: not shown

One block for each binder: values may come before it.
